Bioassay records from PubChem.
A selection: hits, their analogues and other compounds. The true share with any hit is near 2.3%.
Rango-impB inh: qHTS Assay for Inhibitors of Rango (Ran-regulated importin-beta cargo) - Importin beta complex formation; Importin subunit beta-1 (Homo sapiens), Q14974; Rango CFP/YFP FRET sensor + importin beta, 45 min; Potency, µM (titrated, usually from 92.2 µM), inactives show at the highest dose inhibition of complex formation; 0.031% of 340,000 active; AID 540263, 2011; calls by dose curve;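 further: 0% = DMSO wells and 100% = buffer wells lacking importin beta; nearly all actives have a fitted effect of over 15% in size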
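FRET biosensor Rango (snurportin 1 IBB between N-terminal EYFP and C-terminal Cerulean), 50 nM in PBS/1 mM DTT/0.02% Tween-20/0.1% BSA, preincubated 5 min RT with compound; 0.125 microM importin beta added, 45 min RT, CFP/YFP FRET ratio read.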
Nrf2 activator: qHTS of Nrf2 Activators; AREc32 ARE-luciferase reporter (MCF7-derived line), luminescence, 24 h; Potency, µM (titrated, usually from 46.1 µM), inactives show at the top dose activation, most hits filed as activators; 0.31% of 410,000 active; AID 624171, 2012; further: % of control where 0% means no effect; nearly all actives have a fitted effect of over 65% in size
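ARE activation measured as luciferase luminescence (Steady-Glo, 30 min RT) in AREc32_Fluc cells after 24 hr compound exposure at 37 deg C, 5% CO2; cells seeded overnight at 1000/well in OPTI-MEM, 5% FBS.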
A549 viability: Nrf2 qHTS screen for inhibitors: counterscreen for cytotoxicity; A549 ARE-Fluc cells, CellTiter-Fluor viability, 18-24 h; Potency, µM (top dose mostly 46 µM), without a hit: top-dose activity change, negative = cytotoxicity, usual class: inhibitors; 0.16% of 390,000 active; further: on the % scale 0 is the no-effect control and ±100 the full control effect
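Cytotoxicity counterscreen: CellTiter-Fluor fluorescence was measured in A549 ARE_Fluc cells after 18-24 h of compound exposure in a concentration series. The subsequent BugLite luminescent read reports ARE-luciferase activity.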
Rango release inh: qHTS Assay for Inhibitors of RanGTP induced Rango (Ran-regulated importin-beta cargo) - Importin beta complex dissociation | Snurportin-1 (Homo sapiens) + GTP-binding nuclear protein Ran (Homo sapiens) + Importin … | 0.071% of 340,000 active | Potency, µM (highest dose often 46.1 µM), inactives show at the highest dose activity change, negative = inhibition | Biochemical FRET Rango-importin beta, RanGTP-induced dissociation; calls by dose curve; further: % of control where 0% means no effect; nearly all actives have a fitted effect of over 45% in size
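Compounds sat 5 min at room temperature with 0.1 uM Rango biosensor plus 0.25 uM importin beta, then FRET pre-read. RanGTP-RCC1 (0.6 uM Ran, 2mM GTP, 0.2 uM RCC1) added for 45 min, and the CFP/YFP post-read measured blocked complex dissociation.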
Nrf2 inh: Nrf2 qHTS screen for inhibitors | A549 ARE-Fluc reporter, luciferase luminescence, 18-24 h | Potency, µM (series often up to 46 µM), for inactives: at the top dose activity change, negative = inhibition, hits mostly inhibitors | 2.1% of 360,000 active | AID 504444, 2011; further: on the % scale 0 is the no-effect control and ±100 the full control effect; nearly all actives have a fitted effect of over 60% in size
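In this cell-based qHTS, ARE-driven firefly luciferase in A549 cells reports Nrf2 activity; the luminescent signal after BugLite lysis is the measured value, with a prior CellTiter-Fluor read for cell health.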
An asterisk follows results filed as active; ? = inconclusive; / = no result; ! = not confirmed by another sample. Unless noted, the call rests on the fitted dose curve; in most records, active means well fitted curve in the direction sought with a large enough effect; inconclusive means small, poorly fitted or top-dose-only effect, or another doubt; inactive means no such curve, though single readings can be large; an effect the other way counts as inactive or inconclusive. Potency means the concentration at half of the fitted maximal effect.

The chains behind the UniProt entries cited, without tags or fusion partners.
Importin subunit beta-1 (Homo sapiens), Q14974, UniProt Q14974, whole entry, looked up: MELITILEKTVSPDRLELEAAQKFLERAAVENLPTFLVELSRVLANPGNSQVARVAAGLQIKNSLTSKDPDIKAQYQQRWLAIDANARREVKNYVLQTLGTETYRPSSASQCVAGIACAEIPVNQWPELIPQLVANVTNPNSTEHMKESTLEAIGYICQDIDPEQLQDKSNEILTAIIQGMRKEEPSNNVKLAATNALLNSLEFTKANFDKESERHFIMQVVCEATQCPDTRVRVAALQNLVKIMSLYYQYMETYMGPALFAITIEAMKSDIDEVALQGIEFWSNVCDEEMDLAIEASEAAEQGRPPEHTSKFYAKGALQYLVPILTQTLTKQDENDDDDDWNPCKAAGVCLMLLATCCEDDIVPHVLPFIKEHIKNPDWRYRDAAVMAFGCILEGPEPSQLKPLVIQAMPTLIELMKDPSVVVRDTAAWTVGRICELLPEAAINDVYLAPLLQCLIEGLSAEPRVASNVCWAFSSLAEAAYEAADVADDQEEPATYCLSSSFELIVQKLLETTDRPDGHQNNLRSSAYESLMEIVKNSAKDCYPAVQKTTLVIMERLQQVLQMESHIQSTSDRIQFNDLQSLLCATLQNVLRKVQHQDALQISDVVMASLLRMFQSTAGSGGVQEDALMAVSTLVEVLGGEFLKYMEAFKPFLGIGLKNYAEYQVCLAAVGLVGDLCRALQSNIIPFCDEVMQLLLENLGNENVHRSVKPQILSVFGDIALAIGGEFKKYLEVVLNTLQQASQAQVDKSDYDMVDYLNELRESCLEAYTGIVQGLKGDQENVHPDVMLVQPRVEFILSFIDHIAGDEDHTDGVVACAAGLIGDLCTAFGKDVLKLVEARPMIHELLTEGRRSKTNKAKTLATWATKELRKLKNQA

Compound	Rango-impB inh	Nrf2 activator	A549 viability	Rango release inh	Nrf2 inh
C#CCOCCOCCOCCNc1nc(N2CCN(C(=O)CCCCCCCCCCNC(=O)[C@H](CCCCN)n3cc(CCO)nn3)CC2)nc(N2CCN(C(=O)CCCCCCCCCCNC(=O)[C@H](CCCN=C(N)N)n3cc(C[C@@H](C)CC)nn3)CC2)n1	65µM*	-6%	?	?	?
C#CCOCCOCCOCCNc1nc(N2CCN(C(=O)[C@H](CCCN=C(N)N)n3cc(C(N)[C@H](C)CC)nn3)CC2)nc(N2CCN(C(=O)[C@H](CCCN=C(N)N)n3cc(C(N)[C@@H](C)CC)nn3)CC2)n1 (some centres undefined)	65µM*	3%	-1%	?	8%
CC(C)CNc1ncnc2c1ncn2[C@H]1CN(Cc2ccc(-c3ccccc3)cc2)C[C@@H](CO)O1	/	-1%	/	/	/
C[n+]1cccc(C(=O)NNC(=O)C23CC4CC(CC(C4)C2)C3)c1	1%	0%	2%	1%	-9%
O=C(NCc1ccccc1)Nc1ncnc2c1C(c1ccccc1)c1c(ccc3ccccc13)O2 (centres undefined)	/	/	1%	/	6%
O=C(c1ccccc1)N(C(=O)c1ccccc1)c1ncnc2c1C(c1ccccc1)c1c(ccc3ccccc13)O2 (centres undefined)	5%	3%	?	?	2.9µM*!
O=C(CCc1ccccc1)Nc1ncnc2c1C(c1ccccc1)c1c(ccc3ccccc13)O2 (centres undefined)	/	/	-7%	/	4.6µM*
CCOC(=O)CCCC(=O)Nc1ncnc2c1C(c1ccccc1)c1c(ccc3ccccc13)O2 (centres undefined)	0%	-3%	?	1%	?
COc1ccc(S(=O)(=O)Nc2cccc(N(C)S(C)(=O)=O)c2)cc1Br	-1%	3%	-18%	1%	18µM*
COc1ccc(S(=O)(=O)Nc2cccc(C(C)=O)c2)cc1Br	?	5%	2%	-17%	?
Cc1ccc(CCNC(=O)C2CCN(S(=O)(=O)c3ccc4c(c3)NC(=O)C(C)S4)CC2)cc1 (centres undefined)	4%	3%	-25%	10%	16µM*
Cc1cc(C)cc(NC(=O)C2CCN(S(=O)(=O)c3ccc4c(c3)NC(=O)C(C)S4)CC2)c1 (centres undefined)	2%	1%	-16%	18%	-16%
Cc1ccc(NC(=O)C2CCN(S(=O)(=O)c3ccc4c(c3)NC(=O)C(C)S4)CC2)c(Cl)c1 (centres undefined)	0%	4%	-17%	-15%	23µM*
COc1cccc(CNC(=O)C2CCN(S(=O)(=O)c3ccc4c(c3)NC(=O)C(C)S4)CC2)c1 (centres undefined)	-3%	0%	-5%	0%	18µM*
O=C(Nc1ccc(F)cc1F)C1CCN(S(=O)(=O)c2ccc3[nH]c(=O)ccc3c2)CC1	/	1%	-15%	/	/
ClC(Cl)c1nnc(-c2ccccc2)c(-c2c[nH]c3ccccc23)n1	1%	4%	?	3%	10µM*
c1ccc(-c2nnc(-c3c[nH]c4ccccc34)nc2-c2ccccc2)cc1	6%	0%	-16%	20%	?
O=C1CCCc2cc(S(=O)(=O)NCC3CCC(C(=O)Nc4ccccc4F)CC3)ccc2N1 (centres undefined)	/	6%	-1%	/	-6%
CC(=O)N(O)CCCCCNC(=O)CCC(=O)N(O)CCCCCNC(=O)CCC(=O)N(O)CCCCCN	0%	-1%	-1%	8%	10µM*
COc1ccc(OC)c(C(=O)CSc2ncc3c(n2)-c2ccccc2N(Cc2ccccc2C)S3(=O)=O)c1	/	1%	13%	/	?
CCOC(=O)c1oc2ccc(S(=O)(=O)Nc3ccc4c(c3)n(C)c(=O)n4C)cc2c1C	2%	8%	-5%	7%	21µM*

An excerpt from above in order of their number in Rango release inh, descending:
SMILES,Rango-impB inh,Rango release inh,Nrf2 inh
Cc1cc(C)cc(NC(=O)C2CCN(S(=O)(=O)c3ccc4c(c3)NC(=O)C(C)S4)CC2)c1 (centres undefined),2%,18%,-16%
CC(=O)N(O)CCCCCNC(=O)CCC(=O)N(O)CCCCCNC(=O)CCC(=O)N(O)CCCCCN,0%,8%,10µM*
COc1ccc(S(=O)(=O)Nc2cccc(C(C)=O)c2)cc1Br,?,-17%,?
